The species named for the test is Rattus norvegicus. In words: Ratio of Ki for rat sigma1 opioid receptor to Ki for rat sigma2 opioid receptor.

Each structure is given as a SMILES string.

As for `c1ccc2oc(SCCCCN3CCN(C4CCCCC4)CC3)nc2c1`, the Ratio Ki amounted to 0.89.
